Here are results for three compounds from PubChem BioAssay AID1645886 (National Center for Advancing Translational Sciences (NCATS), 2021).

The chains behind the UniProt entries cited, without tags or fusion partners.
UniProt Q8WZA2, whole entry: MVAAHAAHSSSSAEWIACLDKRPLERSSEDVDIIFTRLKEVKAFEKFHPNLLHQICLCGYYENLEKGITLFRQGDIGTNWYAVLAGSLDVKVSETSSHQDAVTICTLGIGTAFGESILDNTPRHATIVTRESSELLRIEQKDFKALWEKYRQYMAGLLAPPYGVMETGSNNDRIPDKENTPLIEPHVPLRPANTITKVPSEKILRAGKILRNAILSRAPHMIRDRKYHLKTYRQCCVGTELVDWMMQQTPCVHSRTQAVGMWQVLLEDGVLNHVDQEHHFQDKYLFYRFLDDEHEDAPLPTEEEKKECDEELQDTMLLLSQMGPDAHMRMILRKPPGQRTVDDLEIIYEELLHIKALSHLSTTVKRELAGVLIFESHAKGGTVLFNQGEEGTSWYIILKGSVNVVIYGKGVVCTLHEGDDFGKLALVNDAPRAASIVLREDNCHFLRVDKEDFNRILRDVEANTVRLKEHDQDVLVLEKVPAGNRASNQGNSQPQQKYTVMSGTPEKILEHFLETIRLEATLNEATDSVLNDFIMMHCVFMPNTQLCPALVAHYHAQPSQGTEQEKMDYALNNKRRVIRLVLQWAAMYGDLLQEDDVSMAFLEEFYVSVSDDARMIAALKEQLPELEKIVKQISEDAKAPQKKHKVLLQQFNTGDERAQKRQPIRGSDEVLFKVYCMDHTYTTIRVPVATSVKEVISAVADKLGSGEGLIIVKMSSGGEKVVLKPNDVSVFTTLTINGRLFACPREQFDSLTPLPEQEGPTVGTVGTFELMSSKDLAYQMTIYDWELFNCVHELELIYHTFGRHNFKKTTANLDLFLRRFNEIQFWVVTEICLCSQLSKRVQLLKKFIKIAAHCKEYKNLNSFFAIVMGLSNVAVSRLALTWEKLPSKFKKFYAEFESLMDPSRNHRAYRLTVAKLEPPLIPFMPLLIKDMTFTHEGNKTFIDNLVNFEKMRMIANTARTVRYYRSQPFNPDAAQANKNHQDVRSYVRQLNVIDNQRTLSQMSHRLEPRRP

Where “and” joins values, the source holds several entries; their conditions need not be identical. Equal values may be shown once. Only a part is listed here, and it is no random draw. Inconclusive results are not listed. Calls of active or inactive are those of the source. The call rests on the fitted dose curve; in most records, active means well fitted inhibition curve with a large enough effect; inconclusive means small, poorly fitted or top-dose-only effect; inactive means no such curve, though single readings can be large or run the other way.

The test addresses Rap guanine nucleotide exchange factor 4 (Homo sapiens) (UniProt Q8WZA2). The experiment in a line: Validation qHTS for antagonist of cAMP-regulated guanine nucleotide exchange factor 4 (EPAC2). Further: nearly all actives have a fitted effect of over 40% in size. The settings on record: EPAC2 Rap1B BODIPY-GDP exchange, fluorescence; at 239 µM (top of the series) unless noted. The text has this: Principle Investigator: Xiaodong Cheng Ph.D. The University of Texas Medical Branch, […], TX MLPCN Grant: NS066510 In multi-cellular eukaryotic organisms, the effects of cAMP are transduced by two ubiquitously-expressed intracellular cAMP receptors, the classic protein kinase A/cAMP-dependent protein kinase (PKA/cAPK) and the more recently discovered exchange protein directly activated by cAMP/cAMP-regulated guanine nucleotide exchange factor (EPAC/cAMP-GEF). Both PKA and EPAC are ubiquitously expressed in all tissues, and an increase in intracellular cAMP levels will lead to the activation of both PKA and EPAC. Therefore, careful dissections of the individual role and relative contribution of EPAC and PKA within the overall cAMP signaling in various model systems are critical for further elucidating the mechanism of cAMP signaling. To date no EPAC-specific antagonists and agonist, as well as isoform-specific agonists have been reported, and developing EPAC-specific pharmacological probes to determine the physiological functions that EPAC play in the overall cAMP-mediated signaling remains a major challenge within the research field. […] This qHTS will be used to screen the Molecular Libraries Small Molecule Repository (MLSMR) as a concentration-titration series using the NCGC unique quantitative screening (qHTS) platform to find activators for EPAC1. […] Activators are identified by monitoring the change in fluorescence signal as the exchanged free BODIPY-GDP has a reduced fluorescence compared to Rap1-bound BODIPY-GDP. […]
Briefly, three uL of reagents (100 nM EPAC2, 250 nM RAP1B-BODIPY-GDP, 50 uM GDP) were dispensed into a 1536-well Greiner black solid-bottom medium binding assay plate. […] The assay plates were read at 5 minute intervals for 30 minutes in the ViewLux plate reader using 480nm excitation and 540nm emission filters. […]
(Quantitative high-throughput screening tests each substance at several concentrations.)
As to `CCC(=O)N(c1ccccc1)C1(COC)CCN(CCc2cccs2)CC1`, the activity, negative = inhibition is inactive: -16.2%.
Under `CCC(=O)N(c1ccccc1)C1(COC)CCN(CCn2nnn(CC)c2=O)CC1` stands inactive: 17%.
Take `CN(CCCl)CCCl`: the activity, negative = inhibition was inactive: -2.3% [at 112 µM] and inactive: -1.03% [at 112 µM].
